{"source": "patent US20160122821A1", "about": "“GENETIC MARKERS OF ANTIPSYCHOTIC RESPONSE” (SUREGENE, LLC, priority 2013, published 2016)", "test_system": "Caucasian patients with schizophrenia (CATIE)", "test": "Genetic association (linear regression, additive model) of SNP alleles with MMRM-modelled change in PANSS Total Score under antipsychotic treatment, CATIE trial", "type": "in vivo, human", "protocol": "For the CATIE study, individual cases were diagnosed as having SZ based on DSM-III/IV criteria. Treatment response for all patients was assessed using the Positive and Negative Syndrome Scale (PANSS) (Kay et al., 1987; Kay et al., 1989; Leucht et al., 2005). […] To avoid possible bias in post hoc selection of a treatment response variable, the inventors used the mixed model repeated measures (MMRM) approach developed by van den Oord and coworkers (van den Oord et al., 2009). […] The design of the CATIE study, including details of consent for genetic analyses, has been described in detail by others (Lieberman et al., 2005; Stroup et al., 2003; Sullivan et al., 2008). Only retrospective genetic analyses, judged to be exempt from human studies requirements by an IRB, were conducted in the current study. Consented DNA samples were obtained from the Rutgers University Cell and DNA Repository in collaboration with […]. […] All of these patients self-reported as having exclusively European ancestry. […] Genotyping was performed on a fee for service basis according to Illumina's standard operating procedures. Raw intensity files were processed using Illumina® BeadStudio version 1.7.4 software. […] Only two of these had been previously genotyped in the CATIE sample. […] To allow comparison to previously published PGx findings for CATIE and to avoid possible bias in post-hoc selection of a treatment response variable, the inventors used the mixed model repeated measures (MMRM) approach developed by Van den Oord and coworkers (van den Oord et al., 2009; […] et al., 2011). Briefly, this method models random effects by introducing random slopes for treatment effects, allowing treatment effects to be different across subjects. The MMRM approach serves to increase the statistical power to detect genetic associations by increasing the precision in measuring change in PANSS Total Score (PANSS-T) by accounting for variance due to baseline PANSS-T, and treatment, as well as smoothing out the random fluctuations in PANSS-T between visits due to various uncontrolled variables. […] Bozeman, Mont.). Quantile-Quantile (QQ) plots were prepared using the R statistical package version 2.14.1. For comparison purposes, original CATIE-provided SNP genotypes in specific genes were evaluated using the same genetic analysis. Haplotype association integrating newly generated and original genotypes for specific regions was carried out in SVS using haplotype blocks predefined by Haploview software. […] For each of the SNPs listed the reference SNP (rs) number is provided, which provides the known sequence context for the given SNP (see, e.g., National Center for Biotechnology Information (NCBI) SNP database available on the world wide web at ncbi.nlm.nih.gov/snp)."}
{"smiles": "Cc1cc2c(s1)Nc1ccccc1N=C2N1CCN(C)CC1", "note": "[Olanzapine, olanzapine]", "values": [{"measurement": "Beta (PANSS)", "setting": "ATP2B2 rs3774155 allele A", "value": 3.48, "unit": "PANSS"}, {"measurement": "Beta (PANSS)", "setting": "C8orf34 rs2591003 allele A", "value": 3.76, "unit": "PANSS"}, {"measurement": "Beta (PANSS)", "setting": "CNTNAP2 rs6957194 allele A", "value": 3.62, "unit": "PANSS"}, {"measurement": "Beta (PANSS)", "setting": "CNTNAP2 rs10240221 allele A", "value": 3.17, "unit": "PANSS"}, {"measurement": "Beta (PANSS)", "setting": "CNTNAP2 rs10263151 allele C", "value": 3.55, "unit": "PANSS"}, {"measurement": "Beta (PANSS)", "setting": "CSMD1 rs2449210 allele C", "value": 2.89, "unit": "PANSS"}, {"measurement": "Beta (PANSS)", "setting": "ERC2 rs2047566 allele C", "value": 3.62, "unit": "PANSS"}, {"measurement": "Beta (PANSS)", "setting": "ERCC6 rs2228527 allele A", "value": 3.86, "unit": "PANSS"}, {"measurement": "Beta (PANSS)", "setting": "GPSM1 rs7853207 allele C", "value": 3.92, "unit": "PANSS"}, {"measurement": "Beta (PANSS)", "setting": "KCNIP1 rs10050842 allele A", "value": 3.26, "unit": "PANSS"}, {"measurement": "Beta (PANSS)", "setting": "PPA2 rs923587 allele C", "value": 3.86, "unit": "PANSS"}, {"measurement": "Beta (PANSS)", "setting": "QRFPR rs11098616 allele A", "value": 3.26, "unit": "PANSS"}, {"measurement": "Beta (PANSS)", "setting": "SLC25A21 rs848097 allele C", "value": 3.49, "unit": "PANSS"}, {"measurement": "Beta (PANSS)", "setting": "WWC1 rs10042345 allele C", "value": 3.55, "unit": "PANSS"}]}
